This is an account of results in patent publication US20060211761A1, “Hmg-coa-reductase inhibitors” (priority 2002, published 2006).

The target in one experiment is HMG-CoA reductase. Briefly: in-vitro HMG-CoA reductase enzyme assay ([14C]mevalonate formation, liver microsomes), Table 1. In kind it is biochemical. Conditions: preincubated 37° C. 30 minutes, [14C] HMG-CoA substrate. How it is done:
(§1) The compounds described herein have been screened in an in-vitro HMG-CoA reductase enzyme assay as described by Kubo et al., Endocrinology, 120, 214 (1987); and Hellar et al., Biochem. Biophys. Res. Comm., 50, 859 (1973).
(§2) HMG-CoA reductase is regarded as a rate-limiting enzyme in cholesterol biosynthesis, catalyzing the following reaction: [^14C]HMG-CoA+2NADPH+2H+[^14C]mevanolate+CoA+2NADP+microsomes, utilizing 2.5 mM [^14C] HMG-CoA as a substrate.
(§3) The reaction was carried out in presence of 100 mM KH2PO4, 20 mM G-6-P, 2.5 mM NADPH, 10 mM EDTA, 5 mM DTT and […], at 37° C. for 15 minutes and quantitating [^14C] mevalonate as an end product. For IC50 determinations, the compounds were dissolved in 1% dimethylsulfoxide, and were preincubated with liver microsomes at 37° C. for 30 minutes. The activity of several representative examples of particular compounds appears in Table 1, and is compared with that of atorvastatin.
In general terms: Liver microsomes are vesicles of endoplasmic reticulum, rich in cytochrome P450 enzymes.

The target of another experiment is HMG CoA Reductase. Briefly: HMG CoA reductase inhibition, similar experiments with phenylhydroxy compounds of U.S. Pat. No. 5,385,929, Table 2. In kind it is biochemical. The following applies: compared to atorvastatin. How it is done:
as §1, §2, §3
The activities of several phenylhydroxy compounds disclosed in U.S. Pat. No. 5,385,929 were compared to that of atorvastatin in similar experiments, and the results are presented in Table 2.

The IC50 is the concentration at which inhibition is half-maximal. Consider `CC(C)c1c(C(=O)Nc2ccccc2)c(-c2ccccc2)c(-c2ccc(F)cc2)n1CC[C@@H](O)C[C@@H](O)CC(=O)O` [Atorvastatin], for which the IC50 at HMG-CoA reductase was 0.0646 nM; at HMG CoA Reductase it was 0.525 nM.
